# Measurements reported in article PMC7700175, “(E)-1-(Furan-2-yl)-(substituted phenyl)prop-2-en-1-one Derivatives as Tyrosinase Inhibitors and Melanogenesis Inhibition: An In Vitro and In Silico Study” (Molecules, 2020).
# Amino acid sequences for entries named in this document (tags omitted). Residues count along the entry.
# UniProt C7FF04, 1-392: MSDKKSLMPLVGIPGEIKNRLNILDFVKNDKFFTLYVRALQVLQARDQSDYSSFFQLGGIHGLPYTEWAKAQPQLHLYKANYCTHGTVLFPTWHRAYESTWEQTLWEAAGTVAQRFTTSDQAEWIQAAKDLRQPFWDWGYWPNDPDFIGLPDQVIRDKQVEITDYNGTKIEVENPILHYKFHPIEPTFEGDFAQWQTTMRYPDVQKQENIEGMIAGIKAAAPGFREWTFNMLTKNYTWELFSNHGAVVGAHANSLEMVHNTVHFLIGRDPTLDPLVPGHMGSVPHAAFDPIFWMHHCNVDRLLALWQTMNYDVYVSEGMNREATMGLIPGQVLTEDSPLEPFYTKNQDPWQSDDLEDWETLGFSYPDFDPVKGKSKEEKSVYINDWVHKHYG
# UniProt P11344, 19-533: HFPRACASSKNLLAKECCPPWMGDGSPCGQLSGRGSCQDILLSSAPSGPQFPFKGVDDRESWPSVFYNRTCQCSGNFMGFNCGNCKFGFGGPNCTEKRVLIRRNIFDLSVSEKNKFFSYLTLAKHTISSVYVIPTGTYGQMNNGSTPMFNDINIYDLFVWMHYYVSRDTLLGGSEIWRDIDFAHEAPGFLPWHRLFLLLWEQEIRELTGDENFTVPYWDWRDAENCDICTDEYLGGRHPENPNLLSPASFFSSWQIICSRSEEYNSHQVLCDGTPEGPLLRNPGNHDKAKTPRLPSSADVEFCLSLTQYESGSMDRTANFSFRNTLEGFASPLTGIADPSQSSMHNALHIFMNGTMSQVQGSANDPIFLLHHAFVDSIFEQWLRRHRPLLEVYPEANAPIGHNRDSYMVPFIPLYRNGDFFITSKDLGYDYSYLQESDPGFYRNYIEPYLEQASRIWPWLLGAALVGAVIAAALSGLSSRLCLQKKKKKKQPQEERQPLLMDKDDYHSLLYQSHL
# Key:
# [1] = molecular target: T1, Mushroom tyrosinase (EC 1.14.18.1) (Agaricus bisporus, UniProt C7FF04); test: Mushroom tyrosinase inhibition assay (L-tyrosine or L-DOPA as substrate); type: biochemical; conditions: mean ± SEM of triplicate
# T1 construct: purchased Sigma-Aldrich
# Description: In order to evaluate the inhibitory effects of synthesized furan chalcone derivatives on the enzyme activity, tested compounds were subjected to a mushroom tyrosinase inhibition assay with monophenolase (L-tyrosine) or diphenolase (L-3,4-dihydroxyphenyl-alanine; L-DOPA) as the substrates.
# Mushroom tyrosinase inhibition was determined following our previously reported methods. All experiments were done in triplicate. […] The measurement was completed in triplicate for each concentration and averaged. The IC50 values were determined by interpolation of the dose-inhibition % curves.
# [2] = system: B16F10 cells
# [3] = molecular target: cellular tyrosinase in B16F10 cells (Mus musculus, UniProt P11344)
# [4] = system: tyrosinase expression in B16F10 cells
structure (smiles),measurement,setting,value
"O=C(/C=C/c1ccc(O)cc1O)c1ccco1 [Compound 8, (E)-3-(2,4-Dihydroxyphenyl)-1-(furan-2-yl)prop-2-en-1-one]",IC50,"[1]; IC50 (μM) a, L-tyrosine as substrate (monophenolase)",0.0433 ± 0.0016 µM
same,IC50,"[1]; IC50 (μM) b, L-DOPA as substrate (diphenolase)",0.28 ± 0.01 µM
same,extracellular melanin content,[2],decreased
same,intracellular melanin content,[2],decreased
same,cellular tyrosinase activity,[3],decreased
same,expression of tyrosinase (protein level),[4],decreased
